The test addresses T1, Mac-1 (Homo sapiens, UniProt P05107+P11215).
T1 construct: isolate neutrophils from ethylenediaminetetraacetic acid (EDTA)-treated venous blood obtained from healthy human volunteers; endogenous in cells; host or cells: human neutrophils (PMN) isolated from venous blood of healthy volunteers
Kind of test: Human neutrophil Mac-1 adhesion assay (fMLP-stimulated PMN adhesion to KLH-coated plates). In kind it is cell-based.

pIC50: −log10 of the molar value. Counter-ions that a name gives are not always drawn.

With `CC(C)Oc1c(C(=O)Nc2nnn[nH]2)sc2c1CCCC2` [Example 1, 3-Isopropoxy-4,5,6,7-tetrahydro-benzo[b]thiophene-2-carboxylic acid (1H-tetrazol-5-yl)-amide], the pIC50 is 5.82.

Regarding `CC(C)Oc1c(C(=O)Nc2nn[nH]n2)sc2c1CNCC2` [Example 8, 3-Isopropoxy-6,7-dihydro-4H-thieno[3,2-c]pyridine-2-carboxylic acid (1H-tetrazol-5-yl)amide hydrochloride], the negative logarithm of the IC50 (pIC50) is 5.37. This pIC50 lies 0.45 log units lower than the previous one. Consider `CC(C)Oc1c(C(=O)Nc2nnn[nH]2)sc2c1CN(C(=O)OC(C)(C)C)CC2` [Example 7, 3-Isopropoxy-5-tert-butoxycarbonyl-6,7-dihydro-4H-thieno[3,2-c]pyridine-2-carboxylic acid (1H-tetrazol-5-yl)amide], for which the negative logarithm of the IC50 (pIC50) was 4.67.

Regarding `CC(C)Oc1c(C(=O)Nc2nnn[nH]2)sc2c1CSC2` [Example 3, 3-Isopropoxy-4,6-dihydro-thieno[3,4-b]thiophene-2-carboxylic acid (1H-tetrazol-5-yl)-amide], the pIC50 was 5.92.

As for `CC(C)Oc1c(C(=O)Nc2nnn[nH]2)sc2c1CSCC2` [Example 4, 3-Isopropoxy-6,7-dihydro-4H-thieno[3,2-c]thiopyran-2-carboxylic acid (1H-tetrazol-5-yl)-amide], the negative logarithm of the IC50 (pIC50) is 5.52. `CC(C)Oc1c(C(=O)Nc2nnn[nH]2)sc2c1C[S+]([O-])CC2` (stereo not drawn) [Example 5, 3-Isopropoxy-5-oxo-6,7-dihydro-4H-thieno [3,2-c]thiopyran-2-carboxylic acid (1H-tetrazol-5-yl)-amide] had a pIC50 of 4.64.

As a reminder, the pIC50 is the negative decadic logarithm of the IC50, by convention in mol/L.

The values above are taken from US5464855A, “Thiophene-2-carboxamidotetrazoles and pharmaceutical use thereof” (Warner-Lambert Company, priority 1994, dated 1995).
